EP1067939B1, “USE OF STEROIDAL ALKALOID DERIVATIVES AS INHIBITORS OF HEDGEHOG PROTEIN SIGNALING PATHWAYS” (The Johns Hopkins University, priority 1998, dated 1999)

System: Ptc -/- MEFs
Assay: β-galactosidase activity in ptc-lacZ mouse embryonic fibroblasts
Assay type: cell-based

`CC1=C2C[C@H]3[C@@H](CC=C4C[C@@H](O)CC[C@@]43C)[C@@H]2CC[C@]12O[C@@H]1C[C@H](C)CN[C@H]1[C@H]2C` [Cyclopamine, cyclopamine] was tested, and the β-galactosidase activity (MEFs homozygous for ptc-lacZ (cell line 23-1), 3 days, normalized to whole protein content) was “decreased” and the “reduction of β-galactosidase activity” value (exposure shorter than the average cell cycle, Ptc -/- MEFs 23-4, 16 hours (Figure 14)) was “can be obtained”.
